Data on 2 compounds can be found in patent US6774121B1, “Phospholipid prodrugs of anti-proliferative drugs” (D-Pharm, Ltd., priority 1999, dated 2004).

pEC50: −log10 of the molar value.

In general, pEC50 refers to the negative decadic logarithm of the EC50, by convention in mol/L.

The subject of this test is L1210-MTX-TAX (resistant to MTX and Taxol, increased P-gp activity). Nature of the test: cells. Conditions: Mus musculus, read-out: EC50, nMol.

Consider `CN(Cc1cnc2nc(N)nc(N)c2n1)c1ccc(C(=O)N[C@@H](CCC(=O)O)C(=O)O)cc1` [MTX, Methotrexate], for which the pEC50 was 6.01.

As for `CC(=O)O[C@H]1C(=O)[C@@]2(C)[C@H]([C@H](OC(=O)c3ccccc3)[C@]3(O)C[C@H](OC(=O)[C@H](O)[C@@H](NC(=O)c4ccccc4)c4ccccc4)C(C)=C1C3(C)C)[C@]1(OC(C)=O)CO[C@@H]1C[C@@H]2O` [TAX, Taxol], the pEC50 was 5.73.
